In patent publication US20230257449A1:

Target: polyclonal human IgG
Test: BLI polyreactivity: polyclonal human IgG on anti-human CH1 biosensors

**Q.** For Control Antibody, which Max Signal (nm) is on record?
**A.** 0.046 nm
